Columns and labels:
[1] = test system: allostimulated human T cells; experiment: Cytokine production (ELISA) after secondary allostimulation; type: cell-based; conditions: secondary allogeneic stimulus, 3 days
Procedure: (§1) Secondary allostimulation was performed as follows. Seven day primary allostimulated T cells were harvested over lymphocyte separation medium (LSM) (ICN, Aurora, OH) and rested for 24 hours. […] Stimulation occurred for 3 days, then the cells were pulsed with radiolabel and harvested as above.
To measure cytokine production (FIG. 26), duplicate secondary allostimulation plates were set up. After 3 days, culture media was assayed using ELISA kits (Biosource, Camarillo, Calif.) using conditions recommended by the manufacturer.

[2] = test system: phytohemaglutinin-(PHA) stimulated monkey T cells; experiment: Monkey mixed lymphocyte response with PHA; type: cell-based; conditions: PBMC from 2 monkeys, 2 μg/ml PHA, 3 days
Procedure: Peripheral blood mononuclear cells (PBMC'S; 3.5×10^4 cells/well from each monkey) from 2 monkeys were purified over lymphocyte separation medium (LSM) and mixed with 2 μg/ml phytohemaglutinin (PHA). The cells were stimulated 3 days then pulsed with radiolabel 16 hours before harvesting.

[3] = test system: CD80-mediated costimulation of T cells; experiment: Proliferation of CD4-positive T cells stimulated with PMA plus CD80-positive CHO cells; type: cell-based, human; conditions: [3H]thymidine, 72 hour culture
Procedure: (§2) Human CD4-positive T cells were isolated by immunomagnetic negative selection (Linsley et al., (1992) J. Ex . Med. 176:1595-1604). Isolated CD4-positive T cells were stimulated with phorbal myristate acetate (PMA) plus CD80-positive or CD86-positive CHO cells in the presence of titrating concentrations of inhibitor. CD4-positive T cells (8-10×10^4/well) were cultured in the presence of 1 nM PMA with or without irradiated CHO cell stimulators. Proliferative responses were measured by the addition of 1 μCi/well of [3H]thymidine during the final 7 hours of a 72 hour culture.

[4] = test system: allostimulated human T cells; experiment: Primary and secondary allostimulation of T cells with PM B lymphoblastoid cell line; type: cell-based
Procedure: Primary allostimulation occurred for 6 days, then the cells were pulsed with ^3H-thymidine for 7 hours, before incorporation of radiolabel was determined.
as §1

[5] = test system: CD86-mediated costimulation of T cells; experiment: Proliferation of CD4-positive T cells stimulated with PMA plus CD86-positive CHO cells; type: cell-based, human; conditions: [3H]thymidine, 72 hour culture
Procedure: as §2

[6] = test system: CD80-mediated and CD86-mediated cellular responses; conditions: cited from earlier work

L104EA29YIg: soluble CTLA4 mutant fusion protein with amino acid changes A29Y and L104E joined to an Ig tail (ATCC PTA-2104)
blocking T cell IL-2 production [1]: more potent than CTLA4Ig
blocking T cell IL-4 production [1]: more potent than CTLA4Ig
blocking T cell γ-IFN production [1]: more potent than CTLA4Ig
inhibition of monkey T cell proliferation [2]: better than CTLA4Ig
inhibition of proliferation, PMA plus CD80-positive CHO [3]: more than CTLA4Ig
inhibition of primary T cell proliferative response ([4]; primary allostimulation 6 days): better than CTLA4Ig
inhibition of secondary T cell proliferative response ([4]; secondary allostimulation 3 days): better than CTLA4Ig
inhibition of proliferation, PMA plus CD86-positive CHO [5]: more effective than CTLA4Ig

CTLA4Ig: soluble fusion protein comprising an extracellular domain of wildtype CTLA4 joined to an Ig tail (ATCC 68629)
lower concentration required for inhibition of CD80-mediated than CD86-mediated cellular responses [6]: approximately 100 fold

From US20030007968A1, “Methods of inducing organ transplant tolerance and correcting hemoglobinopathies” (priority 2001, published 2003)
